# Patent EP1296995B1, “3'-PRODRUGS OF 2'-DEOXY-BETA-L-NUCLEOSIDES” (priority 2000, dated 2001)
# Chains of the proteins cited; added tags and fusions are not shown. Lines headed by an entry give the natural chain unless they say otherwise; changes in a name come on top.
# UniProt P09884: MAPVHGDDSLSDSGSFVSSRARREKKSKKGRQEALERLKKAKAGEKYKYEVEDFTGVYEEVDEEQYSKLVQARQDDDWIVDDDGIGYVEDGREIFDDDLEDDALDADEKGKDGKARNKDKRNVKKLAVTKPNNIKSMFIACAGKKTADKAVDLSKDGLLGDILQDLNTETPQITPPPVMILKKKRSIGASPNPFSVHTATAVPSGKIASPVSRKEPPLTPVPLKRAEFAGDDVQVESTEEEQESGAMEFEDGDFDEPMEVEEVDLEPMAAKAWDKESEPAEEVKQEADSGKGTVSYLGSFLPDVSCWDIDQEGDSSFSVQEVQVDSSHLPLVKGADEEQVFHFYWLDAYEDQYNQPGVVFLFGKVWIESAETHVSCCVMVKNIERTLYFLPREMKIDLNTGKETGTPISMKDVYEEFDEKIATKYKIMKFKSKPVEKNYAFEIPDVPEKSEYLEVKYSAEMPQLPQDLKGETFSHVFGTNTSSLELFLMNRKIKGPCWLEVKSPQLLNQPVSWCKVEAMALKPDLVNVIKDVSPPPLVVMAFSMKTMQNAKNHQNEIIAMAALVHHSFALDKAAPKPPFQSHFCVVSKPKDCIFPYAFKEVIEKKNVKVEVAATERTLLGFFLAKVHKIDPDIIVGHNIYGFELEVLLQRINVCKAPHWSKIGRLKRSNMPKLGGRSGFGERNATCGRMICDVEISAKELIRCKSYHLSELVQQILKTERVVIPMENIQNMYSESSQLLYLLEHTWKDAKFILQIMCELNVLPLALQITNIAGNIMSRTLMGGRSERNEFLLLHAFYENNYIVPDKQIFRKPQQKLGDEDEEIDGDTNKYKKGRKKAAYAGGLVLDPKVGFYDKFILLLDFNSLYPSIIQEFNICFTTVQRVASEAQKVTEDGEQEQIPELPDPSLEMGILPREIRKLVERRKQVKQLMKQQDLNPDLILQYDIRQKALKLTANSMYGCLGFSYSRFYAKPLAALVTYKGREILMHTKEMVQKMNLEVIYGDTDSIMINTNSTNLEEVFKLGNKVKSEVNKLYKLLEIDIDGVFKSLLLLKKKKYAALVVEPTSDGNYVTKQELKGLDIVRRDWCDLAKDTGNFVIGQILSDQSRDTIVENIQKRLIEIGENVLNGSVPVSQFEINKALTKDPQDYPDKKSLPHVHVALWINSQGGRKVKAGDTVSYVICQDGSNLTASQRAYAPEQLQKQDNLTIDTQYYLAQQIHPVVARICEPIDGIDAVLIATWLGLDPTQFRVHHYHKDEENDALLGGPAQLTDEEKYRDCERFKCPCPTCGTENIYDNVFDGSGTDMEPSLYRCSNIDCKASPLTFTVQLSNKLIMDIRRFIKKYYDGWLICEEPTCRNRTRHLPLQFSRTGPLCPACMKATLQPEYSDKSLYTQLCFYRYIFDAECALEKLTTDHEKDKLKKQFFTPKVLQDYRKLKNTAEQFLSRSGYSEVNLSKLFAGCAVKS
# Key:
# human DNA polymerase α [1] = target: T1, human DNA polymerase α (Homo sapiens, UniProt P09884); experiment: biochemical; details: read-out: inhibition of human DNA polymerase α
# human DNA polymerase α [2] = target: T1, human DNA polymerase α
smiles,measurement,setting,value
Cc1cn([C@H]2C[C@H](N)[C@@H](COP(=O)(O)OP(=O)(O)OP(=O)(O)O)O2)c(=O)[nH]c1=O [3'-amino-3'-deoxythymidine (AMT) TP],inhibition at 10 µM,human DNA polymerase α [1],30%
Nc1ccn([C@@H]2C[C@@H](O)[C@H](COP(=O)(O)OP(=O)(O)OP(=O)(O)O)O2)c(=O)n1 [L-dC-TP],inhibition of human DNA polymerase α,"human DNA polymerase α [2]; up to concentrations of 100 µM, the highest concentration tested, listed as triphosphate form of L-dC",not inhibitory
"Nc1ncnc2c1ncn2[C@@H]1CC[C@H](COP(=O)(O)OP(=O)(O)OP(=O)(O)O)O1 [L-ddA-TP, reference compound]",IC50,human DNA polymerase α [2]; read-out: IC50 Human DNA pol α,> 100 µM
